Results: PubChem BioAssay AID504408 (Broad Institute, 2011)
The entries are a selection whose mix differs from that of the whole data set. Some of these compounds have results that are not shown, active ones among them. The source made the active and inactive calls.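 Rule for the calls: active = mean replicate activation of at least 50% with a set share of replicates each reaching 50%; inconclusive = only one of those two conditions met; inactive = mean below 50% and too few replicates reaching it.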

assay: HSF-1 activators, primary screen, NIH3T3-HGL cells, MG132 stress, luminescence, single point (AID 504408); conditions: NIH3T3-HGL HSF-1 luciferase reporter, MG132, 8 h; at 9 µM; stronger effect = higher value; 100% = twice DMSO control signal;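 note: 0% = median of the neutral control wells and 100% = twice that signal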

Row | Structure (SMILES) | activation
1 | CN(C)C1CCCC1OC(=O)C(O)(c1ccccc1)c1ccccc1 (centres undefined) | inactive: 2.27%
2 | CN(C)c1ccc(C(=O)NCC2(N(C)C)CCCCC2)cc1 | inactive: -10.8%
3 | Cc1ccccc1C(=O)NCC1(N2CCCCC2)CCCCC1 | inactive: 11.7%
4 | O=C(NCC1(N2CCCCC2)CCCCC1)c1cccc(Br)c1 | inactive: 3.1%
5 | Cc1cc(C(=O)NCC2(N3CCCCC3)CCCCC2)ccc1[N+](=O)[O-] | inactive: -24.7%
6 | CCN1CCCC(OC(=O)C2(O)c3ccccc3C=Cc3ccccc32)C1 (centres undefined) | inactive: -40%
7 | COc1ccc(C(=O)NCC2(N(C)C)CCCCC2)cc1 | inactive: -7.47%
8 | O=C(NCC1(N2CCCCC2)CCCCC1)c1cc(F)c(F)cc1Cl | inactive: 8.95%
9 | C=CCN1CCN(CCOC(=O)C(O)(c2ccccc2)c2ccccc2)CC1 | inactive: 29.4%
10 | CN1[C@@H]2CC[C@H]1CC(OC(=O)C(O)(c1ccccc1)c1ccccc1)C2 (some centres undefined) | inactive: -12.1%
11 | O=C(NCC1(N2CCCCC2)CCCCC1)c1cc([N+](=O)[O-])ccc1Cl | inactive: 23.4%
12 | Cc1ccc(C(=O)NCC2(N3CCCCC3)CCCCC2)cc1 | inactive: -3.93%
13 | CC(C)N1C(=O)CC2(CCN(CCOC(=O)C(O)(c3ccccc3)c3ccccc3)CC2)C1=O | inactive: 5.07%
14 | COc1cc(SC)ccc1C(=O)NCC1(N(C)C)CCCCC1 | inactive: -16.5%
15 | CCN(CC)CC(C)C(C)OC(=O)C(O)(c1ccccc1)c1ccccc1 (centres undefined) | inactive: -7.92%
16 | O=C(OC1CN2CCC1CC2)C(CO)(c1ccccc1)c1ccccc1 (centres undefined) | inactive: -4.21%
17 | CN(C)c1cccc(C(=O)NCC2(N(C)C)CCCCC2)c1 | inactive: -9.14%
18 | CC(C)Oc1ccc(C(=O)NCC2(N(C)C)CCCCC2)cc1 | inactive: -3.61%
19 | COc1ccc(Br)c(C(=O)NCC2(N3CCCCC3)CCCCC2)c1 | inactive: -11.6%
20 | COc1cc(C(=O)NCC2(N(C)C)CCCCC2)c([N+](=O)[O-])cc1OC | active: 69.6%
21 | CN(C)C1(CNC(=O)c2ccc(Br)cc2)CCCCC1 | inactive: 8.43%
22 | O=C(NCC1(N2CCCCC2)CCCCC1)c1cccc(Cl)c1 | inactive: 2.66%
23 | COc1ccc(Cl)cc1C(=O)NCC1(N(C)C)CCCCC1 | inactive: -24.9%
24 | COc1cccc(C(=O)NCC2(N3CCCCC3)CCCCC2)c1 | inactive: -11.2%
